Consider one compound from the Kinase Knowledgebase extract (Sharma et al. 2016).

Sequences of proteins named here, by UniProt entry; tags and fusion partners are left off. A change or cut given only in a name is not applied to a line headed by its entry.
UniProt P48736: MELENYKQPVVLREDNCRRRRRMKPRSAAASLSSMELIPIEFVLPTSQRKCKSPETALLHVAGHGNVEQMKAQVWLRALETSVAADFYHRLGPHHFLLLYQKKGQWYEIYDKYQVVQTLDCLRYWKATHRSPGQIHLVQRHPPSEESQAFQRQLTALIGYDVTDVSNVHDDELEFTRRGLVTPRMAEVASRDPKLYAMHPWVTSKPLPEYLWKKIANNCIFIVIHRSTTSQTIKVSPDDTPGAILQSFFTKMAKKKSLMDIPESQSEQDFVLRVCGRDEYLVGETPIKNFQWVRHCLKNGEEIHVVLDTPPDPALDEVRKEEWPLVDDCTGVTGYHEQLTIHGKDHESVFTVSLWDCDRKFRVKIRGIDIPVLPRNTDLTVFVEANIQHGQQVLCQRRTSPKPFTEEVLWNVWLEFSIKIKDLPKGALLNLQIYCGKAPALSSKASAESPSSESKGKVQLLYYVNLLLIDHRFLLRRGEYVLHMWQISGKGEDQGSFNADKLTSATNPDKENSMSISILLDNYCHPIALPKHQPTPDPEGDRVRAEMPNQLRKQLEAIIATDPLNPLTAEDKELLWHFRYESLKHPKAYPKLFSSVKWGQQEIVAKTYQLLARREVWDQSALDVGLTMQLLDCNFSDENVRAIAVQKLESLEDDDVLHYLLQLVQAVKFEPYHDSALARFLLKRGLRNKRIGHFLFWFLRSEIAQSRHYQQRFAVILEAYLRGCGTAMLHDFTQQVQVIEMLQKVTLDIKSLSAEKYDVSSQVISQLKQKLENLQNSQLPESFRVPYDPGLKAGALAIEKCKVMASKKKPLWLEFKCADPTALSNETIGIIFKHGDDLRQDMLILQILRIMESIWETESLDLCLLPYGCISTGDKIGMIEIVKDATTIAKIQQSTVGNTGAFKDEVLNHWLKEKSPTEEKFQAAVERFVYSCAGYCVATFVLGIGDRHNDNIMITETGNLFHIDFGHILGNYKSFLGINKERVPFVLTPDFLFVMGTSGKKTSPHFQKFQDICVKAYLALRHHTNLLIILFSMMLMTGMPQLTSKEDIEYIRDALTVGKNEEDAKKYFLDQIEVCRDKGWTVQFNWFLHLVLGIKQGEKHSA

Some results are limits rather than exact numbers.

The assay addresses PIK3CG (human) (UniProt P48736). Nature of the assay: Enzyme Assay.

What is called IC50 is the concentration at which inhibition is half-maximal. The low end stands for greater potency in that assay, the high end for weaker potency in that assay.

For the compound `C[C@H](NC(=O)c1c(N)nn2cccnc12)c1cc2cccc(Cl)c2c(=O)n1-c1ccccc1`, the IC50 is below 100 nM.
